Reference: patent publication US20090274714A1, “TUMOUR-ASSOCIATED PEPTIDES BINDING TO HUMAN LEUKOCYTE ANTIGEN (HLA) CLASS I OR II MOLECULES AND RELATED ANTI-CANCER VACCINE” (Immatics Boitechnologies GmhH, priority 2005, published 2009)

How the values were obtained:
T-cells = details: reference: published literature; cited from earlier work
[1] = Physico-chemical characteristics: solubility; details: solvent giving clear and colourless solution at 1 mg/ml
renal cell carcinoma = details: advanced RCC; cited from earlier work

Compound | In vitro immunogenicity (assay by which shown) (T-cells) | Solubility (Clear and colourless solution 1 mg/ml) [1] [% acetic acid] | patients achieving durable complete remissions (renal cell carcinoma)
CC(C)C[C@H](NC(=O)[C@@H](N)Cc1ccccc1)C(=O)N1CCC[C@H]1C(=O)N[C@@H](CO)C(=O)N[C@@H](CC(=O)O)C(=O)N[C@@H](Cc1ccccc1)C(=O)N[C@@H](Cc1ccccc1)C(=O)N1CCC[C@H]1C(=O)N[C@@H](CO)C(=O)N[C@H](C(=O)O)C(C)C [IMA-HBV-001, reference compound] | Killer assay | 10 | –
IL-2: Interleukin-2, immunological treatment of advanced RCC | – | – | approximately 5%
